Measurements from ChEMBL document CHEMBL5149972, “Novel Antimalarial Tetrazoles and Amides Active against the Hemoglobin Degradation Pathway in Plasmodium falciparum” (J Med Chem, 2021).

Tests used:
Type in all cases: functional
[1] = Fold resistance, ratio of EC50 for antiplasmodial activity against chloroquine and pyrimethamine resistant Plasmodium falciparum 7G8 infected in human RBC to EC50 for antiplasmodial activity against asexual blood stage Plasmodium falciparum 3D7 infected in human RBC
[2] = Fold resistance, ratio of EC50 for antiplasmodial activity against chloroquine, atovaquone and pyrimethamine resistant Plasmodium falciparum TM90C2B infected in human RBC to EC50 for antiplasmodial activity against asexual blood stage Plasmodium falciparum 3D7 infected in human RBC
[3] = Fold resistance, ratio of EC50 for antiplasmodial activity against Plasmodium falciparum NF54 infected in human RBC to EC50 for antiplasmodial activity against asexual blood stage Plasmodium falciparum 3D7 infected in human RBC
[4] = Fold resistance, ratio of EC50 for antiplasmodial activity against chloroquine and pyrimethamine resistant Plasmodium falciparum K1 infected in human RBC to EC50 for antiplasmodial activity against asexual blood stage Plasmodium falciparum 3D7 infected in human RBC
[5] = Fold resistance, ratio of EC50 for antiplasmodial activity against chloroquine and pyrimethamine resistant Plasmodium falciparum Dd2 infected in human RBC to EC50 for antiplasmodial activity against asexual blood stage Plasmodium falciparum 3D7 infected in human RBC

SMILES: Cc1ccccc1-n1nnnc1C(c1cncnc1)N(Cc1cccc(C(F)(F)F)c1)C1CC1 (racemic)
- Ratio [1]: 0.4
- Ratio [2]: 1.7
- Ratio [3]: 2.1
- Ratio [4]: 1.2
- Ratio [5]: 4.5
